Assay: Particle size distribution measurement by laser diffraction
Format: physicochemical
Settings: sieved below 63 μm, n = 3
Experimental: The particle size and size distribution of the powders was determined using laser diffraction equipment, Mastersizer 3000 (Malvern Instruments Ltd, Worcestershire, UK) with Aero S dry powder disperser. Prior to the analysis, both raw DEX and DEX cocrystals powders were sifted with a diameter under 63 μm to control the particle size variation. The particle size distribution was calculated from the light scattering pattern using Mie theory. Particle size at 10% (D10), 50% (D50), 90% (D90) of the volume distribution were calculated automatically using the Mastersizer 3000 software […]. Span was calculated as (D90-D10)/D50. All the samples were measured in triplicate.

- Volumetric size D90: 2.76 ± 1.54 μm
SMILES: C[C@@H]1C[C@H]2[C@@H]3CCC4=CC(=O)C=C[C@]4(C)[C@@]3(F)[C@@H](O)C[C@]2(C)[C@@]1(O)C(=O)CO [DEX, 9-fluoro-11β,17,21-trihydroxy-16α-methylpregna-1,4-diene-3,20-dione, reference compound]

From US20230382944A1, “NOVEL COCRYSTALS OF DEXAMETHASONE” (Versitech Limited, priority 2022, published 2023)
